Consider four compounds from US8969312B2, “Low side effect pharmaceutical composition containing antituberculosis drugs” (priority 2011, dated 2015).

By UniProt entry, the sequences of proteins in these tests, tags left out. Where a name states a change or a piece, a line headed by the entry shows the natural chain unless it says otherwise.
UniProt P05181: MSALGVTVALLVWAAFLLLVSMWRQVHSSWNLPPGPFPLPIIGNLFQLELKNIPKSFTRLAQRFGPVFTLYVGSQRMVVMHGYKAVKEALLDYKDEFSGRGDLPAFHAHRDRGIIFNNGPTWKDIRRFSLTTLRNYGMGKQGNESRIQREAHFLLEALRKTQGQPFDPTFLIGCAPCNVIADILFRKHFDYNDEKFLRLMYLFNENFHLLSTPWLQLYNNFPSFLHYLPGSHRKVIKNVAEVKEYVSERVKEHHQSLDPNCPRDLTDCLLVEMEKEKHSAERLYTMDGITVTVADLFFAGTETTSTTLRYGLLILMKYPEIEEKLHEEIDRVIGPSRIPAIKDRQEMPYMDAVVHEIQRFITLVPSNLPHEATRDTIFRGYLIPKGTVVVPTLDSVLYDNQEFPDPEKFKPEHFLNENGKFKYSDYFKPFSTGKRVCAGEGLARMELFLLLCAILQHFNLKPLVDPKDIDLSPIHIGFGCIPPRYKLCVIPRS

The data set has as its target human liver microsomal cytochrome P450 2E1 (CYP2E1) (Homo sapiens, UniProt P05181). Description: Human liver microsomal CYP2E1, chlorzoxazone 6-hydroxylation.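 As to all read-outs here: chlorzoxazone added as substrate, 6-hydroxychlorzoxazone formation quantified by LC/MS/MS after 30 min at 37 °C with NADP+ regenerating system, compared against solvent control without test sample.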 As to conditions: for Minimum Effective Dose: Table 7.

As for `CCCCCCCCCCCCCCCCCC(=O)OCC(O)CO` (stereo not shown) [Glycerrin monostearate], the “Minimum Effective Dose” value is reported as 158 mg.

Turning to Magnesium stearate, the “Minimum Effective Dose” value is given as 29 mg.

As for Span 60, the “Minimum Effective Dose” value was determined as 1260 mg. Moreover, the “Inhibition of CYP 2E1” value (0.042% (w/v)) is listed as 12.4 ± 2.3%. In addition, for the setting “0.08% (w/v)”, the “Inhibition of CYP 2E1” value is 13.9 ± 0.7%. Also, the “Inhibition of CYP 2E1” value (0.167% (w/v)) is 17.4 ± 0.9%.

On to Span 80, for which the “Minimum Effective Dose” value is 1260 mg. Moreover, the “Inhibition of CYP 2E1” value (0.042% (w/v)) came out at 5.9 ± 0.3%. Moreover, the “Inhibition of CYP 2E1” value (0.08% (w/v)) was determined as 6.2 ± 0.4%. Besides, the “Inhibition of CYP 2E1” value (0.167% (w/v)) is given as 10.1 ± 2.1%.
